Assay results reported in patent US20170224833A1, “SELF-ASSEMBLING MOLECULES THAT ACCUMULATE IN ACIDIC TUMOR MICROENVIRONMENTS” (OHIO STATE INNOVATION FOUNDATION, priority 2014, published 2017).

Assay: Fluorescence anisotropy (FA) in salt solution (150 mM NaCl, 2.2 mM CaCl2; optionally MSA or PEG)
Assay type: physicochemical
Settings: dye directly conjugated to albumin (control)
Procedure: Fluorescence and FA measurements were done using 20-100 μM of PA mixtures in 150 mM NaCl and 2.2 mM CaCl2 and various serum (MP Biomedicals) concentrations (0.75-100% v/v) diluted in the same salt buffer. PA samples in serum or MSA were not heated and cooled. All samples were then pH adjusted using HCl/NaOH solutions, transferred to a 96-well plate followed by collection of fluorescence emission from PA-(Rubipy)3 first parallel (Ipar) and then perpendicular (Iperp) to the excitation polarization using a hybrid reader fluorimeter (BioTek Synergy H4) at room temperature. The excitation wavelength used was 458 nm and the emission was monitored using a 640/20 nm filter. The same method was followed for control experiments involving serum background samples, dye conjugated MSA, only 1.5% PA-(Rubipy)3 in serum and 100 μM PA mixture in MSA and salt buffer. FA was calculated using the following equation:
pH dependent FA values of a 100 μM PAmix1 in the same isotonic salt solution (FIG. 17A) were then obtained. […] The end of this transition was defined as the pH point below which the FA became constant again. The transition profile measured via FA correlated well with that obtained from the pH dependent CD spectra (FIG. 17B). The FA transition onset at 6.98 is close to the most basic pH CD spectrum at 7.10 that started to deviate from a superimposable random coil morphology. […]

Substance: MSA-dye conjugate: Ru(bipy)3^2+ dye directly conjugated to pure Mouse Serum Albumin (MSA), FA control
- FA, constant over pH and time: ~0.04
